Measurements: paper PMC8173608, “Probing the Catalytic Mechanism and Inhibition of SAMHD1 Using the Differential Properties of Rp- and Sp-dNTPαS Diastereomers” (Biochemistry, 2021)

Legend:
Assay in all cases: purified protein
purified protein [1] = substrate: Nc1nc2c(ncn2[C@H]2C[C@H](O)[C@@H](CO[P@@](O)(=S)OP(=O)(O)OP(=O)(O)O)O2)c(=O)[nH]1; details: Mg2+, Fe active site; also allosteric activator at AL1 and AL2
purified protein [2] = substrate: Nc1nc2c(ncn2[C@H]2C[C@H](O)[C@@H](COP(=O)(O)OP(=O)(O)OP(=O)(O)O)O2)c(=O)[nH]1; details: Mg2+; GTP as AL1 activator active site; AL1/AL2 activator
purified protein [3] = substrate: Nc1ncnc2c1ncn2[C@H]1C[C@H](O)[C@@H](CO[P@@](O)(=S)OP(=O)(O)OP(=O)(O)O)O1; details: Mg2+; GTP as AL1 activator active site; AL2 activator
purified protein [4] = substrate: Cc1cn([C@H]2C[C@H](O)[C@@H](CO[P@@](O)(=S)OP(=O)(O)OP(=O)(O)O)O2)c(=O)[nH]c1=O; details: Mg2+; GTP as AL1 activator active site; AL2 activator
purified protein [5] = substrate: Nc1ccn([C@H]2C[C@H](O)[C@@H](CO[P@@](O)(=S)OP(=O)(O)OP(=O)(O)O)O2)c(=O)n1; details: Mg2+; GTP as AL1 activator active site

B1: SAMHD1 (Homo sapiens) (protein)
chain: MQRADSEQPSKRPRCDDSPRTPSNTPSAEADWSPGLELHPDYKTWGPEQVCSFLRRGGFEEPVLLKNIRENEITGALLPCLDESRFENLGVSSLGERKKLLSYIQRLVQIHVDTMKVINDPIHGHIELHPLLVRIIDTPQFQRLRYIKQLGGGYYVFPGASHNRFEHSLGVGYLAGCLVHALGEKQPELQISERDVLCVQIAGLCHDLGHGPFSHMFDGRFIPLARPEVKWTHEQGSVMMFEHLINSNGIKPVMEQYGLIPEEDICFIKEQIVGPLESPVEDSLWPYKGRPENKSFLYEIVSNKRNGIDVDKWDYFARDCHHLGIQNNFDYKRFIKFARVCEVDNELRICARDKEVGNLYDMFHTRNSLHRRAYQHKVGNIIDTMITDAFLKADDYIEITGAGGKKYRISTAIDDMEAYTKLTDNIFLEILYSTDPKLKDAREILKQIEYRNLFKYVGETQPTGQIKIKREDYESLPKEVASAKPKVLLDVKLKAEDFIVDVINMDYGMQEKNPIDHVSFYCKTAPNRAIRITKNQVSQLLPEKFAEQLIRVYCKKVDRKSLYAARQYFVQWCADRNFTKPQDGDVIAPLITPQKKEWNDSTSVQNPTRLREASKSRVQLFKDDPM
Km (purified protein [1]): 10 ± 0.5 µM
kcat (purified protein [1]): 0.09 ± 0.01 s⁻¹
Km (purified protein [2]): 24 ± 2 µM
kcat (purified protein [2]): 0.27 s⁻¹
Km (purified protein [3]): 53 ± 2 µM
kcat (purified protein [3]): 0.23 ± 0.01 s⁻¹
Km (purified protein [4]): 38 ± 4 µM
kcat (purified protein [4]): 0.26 ± 0.01 s⁻¹
Km (purified protein [5]): 54 ± 4 µM
kcat (purified protein [5]): 0.12 ± 0.01 s⁻¹
